From patent US20230183309A1 (Dana-Farber Cancer Institute, Inc., priority 2019, published 2023)

Sequences of proteins named here, by UniProt entry; tags and fusion partners are left off. Residues count along the entry.
UniProt P06873, 106-384: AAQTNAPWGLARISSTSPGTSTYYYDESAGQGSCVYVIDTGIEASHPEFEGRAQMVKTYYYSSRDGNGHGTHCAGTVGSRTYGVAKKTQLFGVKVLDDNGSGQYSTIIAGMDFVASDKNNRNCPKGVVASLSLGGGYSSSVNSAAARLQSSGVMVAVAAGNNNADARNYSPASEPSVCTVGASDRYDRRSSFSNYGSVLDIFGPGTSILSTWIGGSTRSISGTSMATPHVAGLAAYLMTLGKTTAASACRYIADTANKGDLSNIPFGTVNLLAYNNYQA

Columns and labels:
proteinase K = biological target: T1, proteinase K (Parengyodontium album, UniProt P06873); type: in vitro ADME; conditions: 50 mM Tris-HCl, pH 7.4, peptides have the A8Aib substitution, read-out: t½ (half-life), proteinase K digestion, intact peptide by LCMS
T1 construct: purchased New England Biolabs

B6 mice = test: Glucose tolerance test in fasted mice; type: in vivo, mouse; conditions: 10 nmol/kg IP, glucose 2 g/kg IP 30 minutes later
Procedure: To evaluate whether the relative proteolytic stability of SAH-GLP-1(16,23,30) translated into a functional benefit in vivo, glucose tolerance tests in mice were performed. Mice (n=8 per arm) were fasted overnight and administered the corresponding panel of peptides at 10 nmol/kg intraperitoneally followed by a glucose bolus (2 g/kg) 30 minutes later, and then serial serum glucose monitoring was performed over time.
In vivo efficacy testing of SAH-GLP-1 peptides. Male B6 and db/db mice (JAX 000697) at 10-12 weeks of age were housed (5 mice/cage) at a constant room temperature of 24° C. on a normal day-light cycle and provided a standard diet ad libitum. After one week of acclimatization, B6 mice (n=8 per treatment arm) were fasted for 16 hours overnight and the following morning baseline blood glucose levels were measured (Onetouch), followed by intraperitoneal (IP) injection of vehicle (saline) or the indicated peptide (10 nmol/kg). Thirty minutes later, the mice were treated with a bolus IP injection of glucose (2 g/kg, 20% aqueous solution), followed by serial blood glucose monitoring at 0, 15, 30, 60, and 120 minutes. To evaluate the comparative anti-hyperglycemic effects of peptides in db/db mice (n=8 per treatment arm), vehicle (saline) or the indicated peptide (10 nmol/kg) was injected IP and blood glucose levels monitored at 0, 15, 30, 60, and 720 minutes.

`CC[C@H](C)[C@H](NC(=O)[C@H](Cc1ccccc1)NC(=O)[C@H](CCC(=O)O)NC(=O)[C@H](CCCCN)NC(=O)[C@H](C)NC(=O)[C@H](C)NC(=O)[C@]1(C)CCCC=CCCCCCC[C@@](C)(NC(=O)[C@H](CC(=O)O)NC(=O)[C@H](CO)NC(=O)[C@@H](NC(=O)[C@H](Cc2ccccc2)NC(=O)[C@@H](NC(=O)CNC(=O)[C@H](CCC(=O)O)NC(=O)[C@H](C)NC(=O)[C@@H](N)Cc2c[nH]cn2)[C@@H](C)O)[C@@H](C)O)C(=O)N[C@@H](CO)C(=O)N[C@@H](CO)C(=O)N[C@@H](Cc2ccc(O)cc2)C(=O)N[C@@H](CC(C)C)C(=O)N[C@@H](CCC(=O)O)C(=O)NCC(=O)N1)C(=O)N[C@@H](C)C(=O)N[C@@H](Cc1c[nH]c2ccccc12)C(=O)N[C@@H](CC(C)C)C(=O)N[C@H](C(=O)N[C@@H](CCCCN)C(=O)NCC(=O)N[C@@H](CCCNC(=N)N)C(N)=O)C(C)C` [SAH-GLP-1(16,23)] was tested, and the half-life (proteinase K) was 2 h and the “control of induced hyperglycemia in glucose tolerance test” value (B6 mice) was “greatest benefit”.
With `CC[C@H](C)[C@@H]1NC(=O)[C@H](Cc2ccccc2)NC(=O)[C@H](CCC(=O)O)NC(=O)[C@H](CCCCN)NC(=O)[C@H](C)NC(=O)[C@H](C)NC(=O)[C@](C)(NC(=O)CNC(=O)[C@H](CCC(=O)O)NC(=O)[C@H](CC(C)C)NC(=O)[C@H](Cc2ccc(O)cc2)NC(=O)[C@H](CO)NC(=O)[C@H](CO)NC(=O)[C@@H](NC(=O)[C@H](CC(=O)O)NC(=O)[C@H](CO)NC(=O)[C@@H](NC(=O)[C@H](Cc2ccccc2)NC(=O)[C@@H](NC(=O)CNC(=O)[C@H](CCC(=O)O)NC(=O)[C@H](C)NC(=O)[C@@H](N)Cc2c[nH]cn2)[C@@H](C)O)[C@@H](C)O)C(C)C)CCCCCCC=CCCC[C@@](C)(C(=O)N[C@@H](Cc2c[nH]c3ccccc23)C(=O)N[C@@H](CC(C)C)C(=O)N[C@H](C(=O)N[C@@H](CCCCN)C(=O)NCC(=O)N[C@@H](CCCNC(=N)N)C(N)=O)C(C)C)NC1=O` [SAH-GLP-1(23,30)] the “control of induced hyperglycemia in glucose tolerance test” value (B6 mice) was “least effective”.
